Assay results reported in US11471508B2, “HMGB1 antagonist treatment of diabetic peripheral neuropathy” (THE FEINSTEIN INSTITUTES FOR MEDICAL RESEARCH, priority 2019, dated 2022).

Assays:
[1] = In vitro stability in mouse serum (HPLC); conditions: 100 μg
[2] = Degradation in rat plasma and whole blood

NC(=O)[C@H](CCC(=O)O)NC(=O)[C@H](CO)NC(=O)[C@H](CO)NC(=O)[C@@H](N)Cc1ccccc1 [P5779]
in-vitro half-life [1]: 60 min | half-life for degradation ([2]; rat plasma): 12 min | half-life for degradation ([2]; rat whole blood): 13 min
